One experiment addresses Mu-type opioid receptor (Cavia porcellus, UniProt P97266). In words: Binding affinity towards Opioid receptor mu 1 by displacing the radioligand [3H]DAMGO from guinea pig brain membrane.
The target in experiment [1] is Kappa-type opioid receptor (Cavia porcellus, UniProt P41144). In words: Binding affinity towards Opioid receptor kappa 1 by displacing the radioligand [3H]U-69593 from guinea pig brain membrane.

Amino acid sequences for entries named in this document (tags omitted). A change or cut given only in a name is not applied to a line headed by its entry.
UniProt P97266, whole entry, looked up: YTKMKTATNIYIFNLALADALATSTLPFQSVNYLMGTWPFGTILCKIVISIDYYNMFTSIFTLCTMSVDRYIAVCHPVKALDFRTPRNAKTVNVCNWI
UniProt P41144: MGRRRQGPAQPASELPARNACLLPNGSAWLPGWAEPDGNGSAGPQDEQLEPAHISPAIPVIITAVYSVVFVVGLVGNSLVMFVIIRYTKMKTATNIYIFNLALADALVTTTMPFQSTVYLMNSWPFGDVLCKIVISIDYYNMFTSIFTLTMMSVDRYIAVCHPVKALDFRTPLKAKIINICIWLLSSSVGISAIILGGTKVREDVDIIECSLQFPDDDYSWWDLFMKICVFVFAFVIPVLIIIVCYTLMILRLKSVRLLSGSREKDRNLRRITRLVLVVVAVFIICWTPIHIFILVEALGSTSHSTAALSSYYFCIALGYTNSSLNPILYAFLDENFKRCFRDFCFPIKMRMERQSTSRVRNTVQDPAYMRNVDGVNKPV

Consider `CN(C(=O)Cc1ccc(Cl)c(Cl)c1)C1CCCCC1N1CCCC1` (configuration not stated), for which the values for the Ki (on Mu-type opioid receptor; in experiment [1]) were 220 nM and 0.36 nM, respectively.
